4 compounds from PubChem BioAssay AID651965 (National Center for Advancing Translational Sciences (NCATS), 2013) can be followed below.

Amino acid sequences for entries named in this document (tags omitted). A change or cut given only in a name is not applied to a line headed by its entry.
UniProt P80244: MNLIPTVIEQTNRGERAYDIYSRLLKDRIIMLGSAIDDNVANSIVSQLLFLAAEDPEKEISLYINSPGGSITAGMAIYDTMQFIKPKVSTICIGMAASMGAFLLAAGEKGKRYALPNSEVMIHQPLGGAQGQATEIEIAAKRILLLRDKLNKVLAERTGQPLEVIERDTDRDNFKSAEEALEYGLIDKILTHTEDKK

Each structure is given as a SMILES string. The entries are a selection whose mix differs from that of the whole data set. Inconclusive results are not listed. The source made the active and inactive calls. The call rests on the fitted dose curve; in most records, active means well fitted falling curve with a large enough effect; inconclusive means small, poorly fitted or top-dose-only effect; inactive means no such curve, though single readings can be large or run the other way.

The assay deals with ATP-dependent Clp protease proteolytic subunit (Bacillus subtilis (strain 168)) (UniProt P80244). In words: qHTS Assay for Activators of ClpP. Further: the source files actives as falling curves though it sought activators and does not explain the sign; nearly all actives have a fitted effect of over 65% in size. Particulars: purified B. subtilis ClpP, FRET peptide cleavage, 20 min. The text has this: The Clp protease proteolytic subunit (ClpP) is the core unit of the Clp complex belonging to the peptidase family S14 that hydrolyzes protein into small peptides in the presence of ATP and magnesium. It is ubiquitously expressed and is the major protease in bacteria. […] Unlike common antibiotics that simply interfere with the essential enzyme activity, ADEP binding activates the ClpP core in the absence of the regulatory Clp-ATPases leading to uncontrolled proteolysis and eventually cell death. Activators binding to the docking site on ClpP can also block formation of the ClpXP and ClpA/C-P holoenzyme complexes interfering with the normal biological functions of ClpP and thus have the potential to become new anti-microbials.
To identify activators of ClpP, a FRET based quenching reversal assay was developed using a purified B. subtilis ClpP and a decapeptide substrate (FRET-FV). The FRET-FV is tagged with a fluorescent molecule amino benzoic acid (donor) at the N-terminus and a nitrotyrosine quencher (acceptor) at the C-terminus. FRET-FV cleaves upon activation of ClpP with ADEP treatement and reverses the quenching effect of the nitrotyrosine causing an increase in fluorescence emission signal at 430nm. This assay was used to screen the Molecular Libraries Small Molecule Repository (MLSMR).
NIH Molecular Libraries Probe Production Centers Network [MLPCN]
NIH Chemical Genomics Center [NCGC]
Assay Submitter (PI): Michael Maurizi, National Cancer Institute
Two and a half microL/well of purified enzyme solution (final concentrations 10 microg/mL B. subtilis ClpP in 100 mM Tris/HCl pH8, 100 mM KCl, 0.05% low protease BSA, 2.5% glycerol, 0.01% Tween-20 buffer) was dispensed into 1536-well assay plates (Greiner, black solid, medium-binding plates) with Aurora Discovery BioRAPTR Flying Reagent Dispenser (FRD, Beckton-Dickenson). Compound solution (23 nL) was transferred to the assay plate using Kalypsys pin tool equipped with a 1536-pin tool. […] FRET signals at time 0 and after 20 min room temperature incubation were obtained using the PerkinElmer Envision plate reader with 320nm excitation and 430nm emission filters. Delta FRET value (Time 20 - Time 0) was calculated and normalized to the delta FRET value of positive control ADEP (5.8 microM final concentration) and negative control DMSO and no enzyme wells.
Turning to `Cc1ccc(S(=O)(=O)Nc2ccc(-c3nc4ccc(C)cc4s3)cc2)cc1`, the Potency is active: 4.47 µM.

On to `COC(=O)Cc1c[nH]c2cccc(OCC(O)CN(Cc3ccccc3)C(C)C)c12` (centres undefined), for which the Potency is active: 28.2 µM.

With `CC[n+]1c(/C=C/N(C)c2ccccc2)oc2ccccc21`, the Potency was active: 22.4 µM.

`CC1=NC(C)(C)Cc2ccccc21`: the Potency is active: 28.2 µM.
